The results in this text go back to US20050196743A1.

Amino acid sequences for entries named in this document (tags omitted). A change or cut given only in a name is not applied to a line headed by its entry.
UniProt P01149: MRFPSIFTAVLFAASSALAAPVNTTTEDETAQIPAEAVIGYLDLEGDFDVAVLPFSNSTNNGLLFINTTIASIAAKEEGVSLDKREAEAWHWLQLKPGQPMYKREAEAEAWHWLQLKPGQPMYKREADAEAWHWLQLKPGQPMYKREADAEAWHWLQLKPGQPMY

The target of the test is T1, endogenous yeast receptor Ste2p (Saccharomyces cerevisiae) (UniProt D6VTK4).
T1 sequence (looked up): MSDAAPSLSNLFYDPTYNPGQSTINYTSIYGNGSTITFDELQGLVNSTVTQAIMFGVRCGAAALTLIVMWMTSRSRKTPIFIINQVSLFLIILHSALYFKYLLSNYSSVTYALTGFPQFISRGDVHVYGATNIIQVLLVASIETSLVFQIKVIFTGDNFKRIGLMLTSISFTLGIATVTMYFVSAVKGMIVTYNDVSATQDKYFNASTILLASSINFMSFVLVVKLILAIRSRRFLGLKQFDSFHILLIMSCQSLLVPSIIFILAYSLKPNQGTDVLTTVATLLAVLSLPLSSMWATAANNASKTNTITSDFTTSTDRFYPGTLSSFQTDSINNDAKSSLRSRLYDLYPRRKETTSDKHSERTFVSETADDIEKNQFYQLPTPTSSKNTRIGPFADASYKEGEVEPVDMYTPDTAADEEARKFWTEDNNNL
The test is described as follows: cell-based or functional assay.

“α-factor (from UniProt P01149 90-102) (peptide)” had an EC50 of induction of the Aga2 protein (ELISA-like assay of DTT extracts detected with EndoH-treated Sag1p^21-352, anti-Xpress and anti-mouse IgG-HRP) of 37 nM.
